SMILES strings stand for the structures. The list shows a part of the results, in another mix than the full data. Active and inactive are the calls of the source.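 How the source made its calls: active means inhibition of cGAS enzyme activity at or above 60%; inactive means the rest.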

The chains behind the UniProt entries cited, without tags or fusion partners.
UniProt Q8C6L5, whole entry: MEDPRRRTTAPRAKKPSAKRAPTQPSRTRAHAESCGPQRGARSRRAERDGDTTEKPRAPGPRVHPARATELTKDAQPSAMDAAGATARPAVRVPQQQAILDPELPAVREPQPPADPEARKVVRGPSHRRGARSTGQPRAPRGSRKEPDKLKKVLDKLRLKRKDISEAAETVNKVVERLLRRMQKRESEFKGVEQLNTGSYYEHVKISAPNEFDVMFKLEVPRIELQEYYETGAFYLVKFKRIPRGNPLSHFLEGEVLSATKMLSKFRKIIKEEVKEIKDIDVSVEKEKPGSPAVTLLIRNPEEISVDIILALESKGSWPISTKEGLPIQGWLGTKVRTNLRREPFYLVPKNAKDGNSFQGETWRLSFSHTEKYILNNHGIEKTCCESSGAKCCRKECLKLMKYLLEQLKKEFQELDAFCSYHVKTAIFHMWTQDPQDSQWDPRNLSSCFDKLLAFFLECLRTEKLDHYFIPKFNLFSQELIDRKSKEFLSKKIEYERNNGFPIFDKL

The assay addresses Cyclic GMP-AMP synthase (Mus musculus) (UniProt Q8C6L5). Kind of assay: inhibitors of Mus musculus cyclic GMP-AMP synthase, initial high-throughput assay, cell-free, RapidFire MS (AID 1259397).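 Further: enzyme stimulated by 45 bp dsDNA with ATP and GTP substrates; cGAMP share of summed cGAMP plus half ATP and half GTP signals.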 The following applies: recombinant mouse cGAS, cGAMP by RapidFire MS; at 12.5 µM; stronger effect = higher value.
As a reminder, the inhibition is the drop in the measured response relative to a control, in per cent. Consider `CN(CCCl)CCCl`, for which the inhibition is inactive: 26.4%.

The record behind these values is PubChem BioAssay AID1259397 (Fisher Drug Discovery Resource Center, 2018).
